From US20040214798A1 (priority 2003, published 2004)

Key:
T116 cells = assay type: cell-based, Chinese hamster; settings: 1 hour drug exposure
[1] = tested on: SKOV3 human ovarian carcinoma cells infected with adenovirus expressing E. coli nitroreductase (NR+); assay: Cytotoxicity in SKOV3 cells infected with adenovirus expressing E. coli nitroreductase (NR+), MTT; assay type: cell-based

How did the “Ratio of IC50 values (F179/T116)” value (T116 cells) turn out when `NC(=O)c1cc(N2CC2)c([N+](=O)[O-])cc1[N+](=O)[O-]` [CB1954, 5-(aziridin-1-yl)-2,4-dinitrobenzamide, reference compound] was run?
Its value is greater than 327.

What about the “Ratio of IC50 values (NR−/NR+)” value ([1]; SKOV3, 18 hour drug exposure) of the same compound?
The value was 150.

What about the “Selective toxicity in infected versus uninfected SKOV3 cells” value ([1]; adenovirus NR 100 pfu/cell) of the same compound?
Its value is 150 fold.
